From patent publication US20040166111A1 (published 2004)

Protein sequences, listed by entry. Tags and fused reporters are not part of them. Residues count along the entry.
UniProt P01375, 77-233 limits assumed: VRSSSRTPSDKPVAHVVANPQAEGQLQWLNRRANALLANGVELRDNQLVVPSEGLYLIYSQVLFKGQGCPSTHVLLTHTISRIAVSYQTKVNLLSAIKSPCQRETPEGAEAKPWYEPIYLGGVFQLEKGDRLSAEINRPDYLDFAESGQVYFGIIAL

Assays:
human TNFα [1] = molecular target: T1, human TNFα (human, UniProt P01375 77-233); test: SPR, BIAcore 3000; agent captured by goat anti-human Fc, huTNF as analyte
T1 construct: also called huTNF; hTNFα

human TNFα [2] = molecular target: T1, human TNFα; test: SPR, BIAcore 3000 kinetics

Kd (human TNFα [1]): 94.5 pM
koff (human TNFα [1]): 6.29e-05 s⁻¹
kon (human TNFα [1]): 671000 M⁻¹ s⁻¹
half-life of complex (human TNFα [2]): 3.07 h
B1: Infliximab (Remicade) (antibody, V domains shown)
VH: EVKLEESGGGLVQPGGSMKLSCVASGFIFSNHWMNWVRQSPEKGLEWVAEIRSKSINSATHYAESVKGRFTISRDDSKSAVYLQMTDLRTEDTGVYYCSRNYYGSTYDYWGQGTTLTVSS
VL: DILLTQSPAILSVSPGERVSFSCRASQFVGSSIHWYQQRTNGSPRLLIKYASESMSGIPSRFSGSGSGTDFTLSINTVESEDIADYYCQQSHSWPFTFGSGTNLEVKR
